# Reference: PubChem BioAssay AID583 (Sanford-Burnham Center for Chemical Genomics, 2007)
# The chains behind the UniProt entries cited, without tags or fusion partners.
# UniProt P0DMV8, whole entry: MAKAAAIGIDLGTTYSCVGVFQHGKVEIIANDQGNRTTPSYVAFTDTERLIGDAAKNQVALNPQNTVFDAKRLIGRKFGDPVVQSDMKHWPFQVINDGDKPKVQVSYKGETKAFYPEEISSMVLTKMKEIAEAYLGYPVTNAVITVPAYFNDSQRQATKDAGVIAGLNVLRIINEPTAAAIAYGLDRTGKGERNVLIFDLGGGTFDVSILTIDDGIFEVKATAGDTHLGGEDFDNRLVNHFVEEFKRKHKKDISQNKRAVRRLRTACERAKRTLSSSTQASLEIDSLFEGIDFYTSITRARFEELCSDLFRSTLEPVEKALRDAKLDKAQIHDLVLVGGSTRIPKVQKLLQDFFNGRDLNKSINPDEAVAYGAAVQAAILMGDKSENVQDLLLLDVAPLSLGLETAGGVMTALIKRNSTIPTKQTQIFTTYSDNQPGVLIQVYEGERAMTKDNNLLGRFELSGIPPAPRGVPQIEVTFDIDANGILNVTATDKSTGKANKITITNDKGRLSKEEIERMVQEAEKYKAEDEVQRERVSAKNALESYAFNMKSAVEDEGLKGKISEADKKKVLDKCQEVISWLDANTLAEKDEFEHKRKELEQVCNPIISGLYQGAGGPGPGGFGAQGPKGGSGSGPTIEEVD
# The entries are a selection whose mix differs from that of the whole data set. Some of these compounds have results that are not shown, active ones among them. Active and inactive are the calls of the source. Cut-off read from the data, not from the text of the source: active = displacement above about 50%; inactive = the rest.
# Molecular target: Heat shock 70 kDa protein 1A (Homo sapiens) (UniProt P0DMV8)
# Test: Hsp70 inhibitors, probe displacement, primary screen, biochemical, fluorescence polarization (AID 583);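 note: plate controls were vehicle for no effect and reference ligand for full effect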
# Details: mP, at 20 µM, active compounds read high
row,Structure (SMILES),displacement
1,COc1ccc(OC)c(C=C(C#N)C#N)c1,inactive: 2%
2,O=C(OC1CN2CCC1CC2)C(CO)(c1ccccc1)c1ccccc1 (stereo not drawn),inactive: 0.9%
3,CN(C)c1cccc(C(=O)NCC2(N(C)C)CCCCC2)c1,inactive: -5%
